Experimental data published in patent US20240376151A1 (FOG PHARMACEUTICALS, published 2024).

Chains of the proteins cited; added tags and fusions are not shown. Residues count along the entry.
UniProt Q9NZQ7, 18-239: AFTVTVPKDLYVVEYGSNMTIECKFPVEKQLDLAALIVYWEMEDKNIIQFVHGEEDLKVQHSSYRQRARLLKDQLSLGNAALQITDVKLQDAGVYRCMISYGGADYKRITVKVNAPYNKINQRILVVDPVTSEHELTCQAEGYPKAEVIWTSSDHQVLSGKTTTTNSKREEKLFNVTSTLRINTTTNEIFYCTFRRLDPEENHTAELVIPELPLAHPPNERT

Target: T1, human PD-L1 (residues 18-239) with C-terminal human IgG Fc-Avi tag (human, UniProt Q9NZQ7 18-239)
T1 construct: also called PD-L1-Fc; not shown: C-terminal human IgG Fc-Avi tag
Test: SPR

For DPALWQCVFAARSCYEE (Ac- at N-terminus; -NH2 at C-terminus; the two Cys stapled (Cys-stapled)) [FP28132], the Kd was 400 nM.

In the case of DPALWMCVFAARQCYES (Ac- at N-terminus; -NH2 at C-terminus; the two Cys stapled (Cys-stapled)) [FP28135], the Kd is reported as 1000 nM.
